Experimental findings from US9029542B2 (priority 2011, dated 2015) are described below.

One test has as its system Capsella bursa-pastoris. Put plainly: Postemergence weed clearing activity, pot-culture method. The format is in vivo. Particulars: visual 0-100% grading 25 days after application.
A further test has as its system Amaranthus retroflexus. Described as above. The format is in vivo. Particulars: visual 0-100% grading 25 days after application.
A further test concerns Chenopodium serotinum. The description is as above. Conditions: 10 g/mu; foliage spray; visual 0-100% grading 25 days after application.
Test [1] concerns rape. Put plainly: Weed clearing activity test with culture dish method (ex-vivo plate method). The format is in vivo. Conditions: positive = inhibition; for weed clearing activity, rape Root (Effect): root length after 5 days; for weed clearing activity, rape Stem (Effect): stem length after 5 days.
The subject of a further test is cockspur grass. The test is described as above. The format is in vivo. Particulars: positive = inhibition; for weed clearing activity, cockspur grass Root (Effect): root length after 5 days; for weed clearing activity, cockspur grass Stem (Effect): stem length after 5 days.
Another test concerns Eclipta prostrata. Put plainly: Postemergence weed clearing activity, pot-culture method. The format is in vivo. Conditions: visual 0-100% grading 25 days after application.
Another test relates to Abutilon theophrasti. The description is as above. The format is in vivo. Conditions: visual 0-100% grading 25 days after application.
The next test concerns Cardmine. Described as above. Conditions: visual 0-100% grading 25 days after application; for Postemergence weed clearing activity, Card-mine: 10 g/mu, foliage spray; for Weed clearing activity, Cardmine, Postemergence: pot-culture.
The test system of another test is Cassia obtusifolia. Described as above. Particulars: visual 0-100% grading 25 days after application; for Postemergence weed clearing activity, Cassia obtusifolia: 10 g/mu, foliage spray; for Weed clearing activity, Cassia obtusifolia, Postemergence: pot-culture.
Test [2] concerns rape. The description is as above. Conditions: 10 g/mu; foliage spray; visual 0-100% grading 25 days after application.

The structures appear in SMILES notation.

On to `Cc1cc(Cl)ccc1OCC(=O)OCC12COP(=O)(OC1)OC2`, for which, in the test on Capsella bursa-pastoris (10 g/mu, foliage spray), the “weed clearing activity, Capsella bursa-pastoris Postemergence” value stood at 0%. Moreover, the “weed clearing activity, Amaranthus retroflexus Postemergence” value with Amaranthus retroflexus (10 g/mu, foliage spray) turned out to be 0%. For the same compound, the “Postemergence weed clearing activity, Chenopodium serotinum” value in the test on Chenopodium serotinum is listed as 70%. Moreover, the “weed clearing activity, rape Root (Effect)” value in the test with rape [1] (10 μg/g) is 97%; in the test on rape [1] (100 μg/g) it was 100%. Also, the “weed clearing activity, rape Stem (Effect)” value stood at 92% in the test on rape [1] (10 μg/g, negative = promotion) and 99% with rape [1] (100 μg/g). In addition, the “weed clearing activity, cockspur grass Root (Effect)” value in the test with cockspur grass (10 μg/g) and with cockspur grass (100 μg/g) was 97% each time. The figures for the “weed clearing activity, cockspur grass Stem (Effect)” value in the test with cockspur grass (10 μg/g) and in the test with cockspur grass (100 μg/g) were 50% and 65%, respectively.
For the compound `O=C(COc1ccccc1F)OCC12COP(=O)(OC1)OC2`, the “weed clearing activity, Capsella bursa-pastoris Postemergence” value with Capsella bursa-pastoris (10 g/mu, foliage spray) is reported as 100%; in the test with Capsella bursa-pastoris (dosage 5 g/mu, pot-culture) it was 90 (Severely effecting growth, leading to death in majority, a few plants remaining, having very good activity); in the test with Capsella bursa-pastoris (dosage […], pot-culture), 90 (Severely effecting growth, leading to death in majority, a few plants remaining, having very good activity). The “weed clearing activity, Amaranthus retroflexus Postemergence” value in the test on Amaranthus retroflexus (10 g/mu, foliage spray) was 100%; with Amaranthus retroflexus (dosage 5 g/mu, pot-culture), 70%; in the test on Amaranthus retroflexus (dosage […], pot-culture), 70%. The “Weed clearing activity, Eclipta prostrata, Postemergence” value in the test on Eclipta prostrata (dosage 5 g/mu) was 50%; in the test on Eclipta prostrata (dosage […]) it was 0 (Being same as the control, inactive). Also, the “Weed clearing activity, Abutilon theophrasti, Postemergence” value in the test with Abutilon theophrasti (dosage 5 g/mu) and with Abutilon theophrasti (dosage […]) was 30% throughout. For the same compound, the “Postemergence weed clearing activity, Card-mine” value with Cardmine worked out at 80%. The “Weed clearing activity, Cardmine, Postemergence” value is 80 (Severely effecting growth, leading to death in a part, having good activity) in the test with Cardmine (dosage 5 g/mu) and 70% in the test with Cardmine (dosage […]). In the test on Cassia obtusifolia, the “Postemergence weed clearing activity, Cassia obtusifolia” value is recorded as 40%. For the same compound, the “Weed clearing activity, Cassia obtusifolia, Postemergence” value was 0 (Being same as the control, inactive) with Cassia obtusifolia (dosage 5 g/mu) and 0 (Being same as the control, inactive) in the test with Cassia obtusifolia (dosage […]). Besides, the “Postemergence weed clearing activity, Chenopodium serotinum” value in the test on Chenopodium serotinum is reported as 100%. Further, the “weed clearing activity, rape Root (Effect)” value in the test with rape [1] (10 μg/g) was 53%; in the test on rape [1] (100 μg/g), 92%. Besides, the “weed clearing activity, rape Stem (Effect)” value worked out at 24% in the test with rape [1] (10 μg/g, negative = promotion) and 49% in the test with rape [1] (100 μg/g). The “weed clearing activity, cockspur grass Root (Effect)” value with cockspur grass (10 μg/g) was 69%; in the test on cockspur grass (100 μg/g), 80%. The figures for the “weed clearing activity, cockspur grass Stem (Effect)” value with cockspur grass (10 μg/g) and in the test with cockspur grass (100 μg/g) were 31% and 55%, respectively.
In the case of `Cc1cc(OCC(=O)OCC23COP(=O)(OC2)OC3)ccc1Cl`, the “weed clearing activity, Capsella bursa-pastoris Postemergence” value in the test on Capsella bursa-pastoris (10 g/mu, foliage spray) is on record as 0%. Further, the “weed clearing activity, Amaranthus retroflexus Postemergence” value in the test on Amaranthus retroflexus (10 g/mu, foliage spray) is 0%. In addition, the “Postemergence weed clearing activity, Chenopodium serotinum” value with Chenopodium serotinum is recorded as 70%. The “weed clearing activity, rape Root (Effect)” value with rape [1] (10 μg/g) is given as 97%; in the test with rape [1] (100 μg/g), 100%. The “weed clearing activity, rape Stem (Effect)” value amounted to 90% in the test on rape [1] (10 μg/g, negative = promotion) and 97% in the test with rape [1] (100 μg/g). Moreover, the “weed clearing activity, cockspur grass Root (Effect)” value stood at 91% in the test on cockspur grass (10 μg/g) and 97% in the test on cockspur grass (100 μg/g). Besides, the “weed clearing activity, cockspur grass Stem (Effect)” value with cockspur grass (10 μg/g) is 55%; in the test with cockspur grass (100 μg/g), 63%.
Turning to `O=C(COc1ccc(Cl)cc1)OCC12COP(=O)(OC1)OC2`, the “weed clearing activity, Capsella bursa-pastoris Postemergence” value with Capsella bursa-pastoris (10 g/mu, foliage spray) is on record as 0%. In addition, in the test with Amaranthus retroflexus (10 g/mu, foliage spray), the “weed clearing activity, Amaranthus retroflexus Postemergence” value is reported as 0%. Further, the “Postemergence weed clearing activity, Chenopodium serotinum” value with Chenopodium serotinum is recorded as 70%. For the same compound, the results for the “weed clearing activity, rape Root (Effect)” value in the test on rape [1] (10 μg/g) and with rape [1] (100 μg/g) were 92% and 97%, respectively. The “weed clearing activity, rape Stem (Effect)” value stood at 63% with rape [1] (10 μg/g, negative = promotion) and 90% with rape [1] (100 μg/g). Further, the results for the “weed clearing activity, cockspur grass Root (Effect)” value in the test on cockspur grass (10 μg/g) and with cockspur grass (100 μg/g) were 83% and 97%, respectively. The “weed clearing activity, cockspur grass Stem (Effect)” value in the test with cockspur grass (10 μg/g) worked out at 37%; with cockspur grass (100 μg/g), 42%.
As to `Cc1ccc(OCC(=O)OCC23COP(=O)(OC2)OC3)cc1`, the “weed clearing activity, Capsella bursa-pastoris Postemergence” value turned out to be 100% in the test with Capsella bursa-pastoris (10 g/mu, foliage spray); 85% in the test on Capsella bursa-pastoris (dosage 5 g/mu, pot-culture); 70% with Capsella bursa-pastoris (dosage […], pot-culture). For the same compound, the “weed clearing activity, Amaranthus retroflexus Postemergence” value is 80% with Amaranthus retroflexus (10 g/mu, foliage spray); 70% in the test on Amaranthus retroflexus (dosage 5 g/mu, pot-culture); 60% with Amaranthus retroflexus (dosage […], pot-culture). In addition, the “Weed clearing activity, Eclipta prostrata, Postemergence” value turned out to be 65% in the test on Eclipta prostrata (dosage 5 g/mu) and 60% in the test with Eclipta prostrata (dosage […]). The “Weed clearing activity, Abutilon theophrasti, Postemergence” value in the test with Abutilon theophrasti (dosage 5 g/mu) and in the test on Abutilon theophrasti (dosage […]) was 30% in each case. The “Postemergence weed clearing activity, Card-mine” value in the test with Cardmine stood at 70%. Further, the “Weed clearing activity, Cardmine, Postemergence” value with Cardmine (dosage 5 g/mu) amounted to 70%; in the test with Cardmine (dosage […]) it was 50%. For the same compound, the “Postemergence weed clearing activity, Cassia obtusifolia” value with Cassia obtusifolia came out at 70%. In addition, the figures for the “Weed clearing activity, Cassia obtusifolia, Postemergence” value in the test on Cassia obtusifolia (dosage 5 g/mu) and in the test with Cassia obtusifolia (dosage […]) were 70% and 60%, respectively. Besides, in the test on Chenopodium serotinum, the “Postemergence weed clearing activity, Chenopodium serotinum” value was 80%. Also, the “weed clearing activity, rape Root (Effect)” value with rape [1] (10 μg/g) stood at 79%; with rape [1] (100 μg/g), 97%. Besides, the “weed clearing activity, rape Stem (Effect)” value was determined as 34% with rape [1] (10 μg/g, negative = promotion) and 88% with rape [1] (100 μg/g). The “weed clearing activity, cockspur grass Root (Effect)” value with cockspur grass (10 μg/g) is listed as 51%; in the test on cockspur grass (100 μg/g) it was 94%. The “weed clearing activity, cockspur grass Stem (Effect)” value with cockspur grass (10 μg/g) turned out to be 4%; in the test with cockspur grass (100 μg/g), 22%.
In the case of `CC(C)(C)c1ccc(OCC(=O)OCC23COP(=O)(OC2)OC3)cc1`, in the test with Amaranthus retroflexus (10 g/mu, foliage spray), the “weed clearing activity, Amaranthus retroflexus Postemergence” value is on record as 85%. Also, the “Postemergence weed clearing activity, Rape” value in the test on rape [2] is 79%. Moreover, the “weed clearing activity, rape Root (Effect)” value is recorded as 9% in the test on rape [1] (10 μg/g) and 79% with rape [1] (100 μg/g). The “weed clearing activity, rape Stem (Effect)” value with rape [1] (10 μg/g, negative = promotion) amounted to 5%; with rape [1] (100 μg/g) it was 49%. The “weed clearing activity, cockspur grass Root (Effect)” value stood at 67% in the test with cockspur grass (10 μg/g) and 72% in the test on cockspur grass (100 μg/g). The figures for the “weed clearing activity, cockspur grass Stem (Effect)” value in the test on cockspur grass (10 μg/g) and in the test with cockspur grass (100 μg/g) were 25% and 43%, respectively.
Take `O=C(COc1ccc(F)cc1Cl)OCC12COP(=O)(OC1)OC2`: the “weed clearing activity, Capsella bursa-pastoris Postemergence” value in the test on Capsella bursa-pastoris (10 g/mu, foliage spray) is recorded as 60%. Besides, in the test with Amaranthus retroflexus (10 g/mu, foliage spray), the “weed clearing activity, Amaranthus retroflexus Postemergence” value stood at 40%. Moreover, in the test with Chenopodium serotinum, the “Postemergence weed clearing activity, Chenopodium serotinum” value was found to be 70%. Besides, the “weed clearing activity, rape Root (Effect)” value in the test on rape [1] (10 μg/g) and in the test with rape [1] (100 μg/g) was 100% in each case. Further, the “weed clearing activity, rape Stem (Effect)” value with rape [1] (10 μg/g, negative = promotion) amounted to 93%; in the test on rape [1] (100 μg/g), 99%. Also, the “weed clearing activity, cockspur grass Root (Effect)” value with cockspur grass (10 μg/g) and in the test on cockspur grass (100 μg/g) was 95% in each case. Besides, the entries for the “weed clearing activity, cockspur grass Stem (Effect)” value with cockspur grass (10 μg/g) and with cockspur grass (100 μg/g) were 43% and 54%, respectively.
Turning to `O=C(COc1ccccc1Cl)OCC12COP(=O)(OC1)OC2`, in the test on Capsella bursa-pastoris (10 g/mu, foliage spray), the “weed clearing activity, Capsella bursa-pastoris Postemergence” value is reported as 90%. Moreover, the “weed clearing activity, Amaranthus retroflexus Postemergence” value in the test with Amaranthus retroflexus (10 g/mu, foliage spray) stood at 70%. Also, the “Postemergence weed clearing activity, Chenopodium serotinum” value with Chenopodium serotinum came out at 80%. Besides, the “weed clearing activity, rape Root (Effect)” value with rape [1] (10 μg/g) came out at 95%; in the test on rape [1] (100 μg/g) it was 99%. Moreover, the “weed clearing activity, rape Stem (Effect)” value is listed as 90% in the test with rape [1] (10 μg/g, negative = promotion) and 97% in the test with rape [1] (100 μg/g). Besides, the “weed clearing activity, cockspur grass Root (Effect)” value in the test on cockspur grass (10 μg/g) came out at 91%; with cockspur grass (100 μg/g), 97%. Besides, the “weed clearing activity, cockspur grass Stem (Effect)” value came out at 48% in the test on cockspur grass (10 μg/g) and 55% with cockspur grass (100 μg/g).
